In PubChem BioAssay AID804 (SRMLSC, 2007):
Only a part is listed here, and it is no random draw. The source made the active and inactive calls.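 How the source made its calls: active means inhibition above a set limit, 3 SD over the mean compound inhibition (cut at about 44% in these data); inactive means the rest.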

Assay: growth inhibitors of yeast BB579 in restrictive medium, primary screen, yeast lifespan-shortening project, S. cerevisiae (AID 804)
Conditions: OD615, 48 h, at 10 µM, stronger effect = higher value
For O=P1(Nc2ccccn2)COc2ccccc2OC1, the inhibition was inactive: 11.3%. In the case of Clc1n[nH]nc1-c1nn[nH][15n]1, the inhibition is reported as inactive: -1%. In the case of Cc1nn(-c2ccccc2)c2c1P(=O)(N1CCOCC1)N(C)C(c1ccccc1)=N2 (stereo not drawn), the inhibition is reported as inactive: -32.9%. With O=P1(Nc2ncccn2)COc2ccccc2OC1 the inhibition was inactive: -56.8%. For Cc1ccc(OCC(=O)OC2CN3CCC2CC3)cc1 (stereo not drawn), the inhibition was inactive: -60.3%. For O=P1(Nc2ccc(Br)cn2)COc2ccccc2OC1, the inhibition was inactive: -34%. In the case of CCOP1(=S)c2c(C)nn(CCC#N)c2N=C(c2ccccc2F)N1C (stereo not drawn), the inhibition is reported as inactive: -29%. In the case of O=P(Nc1nccs1)(c1ccccc1)c1nc2ccccc2s1 (stereo not drawn), the inhibition is reported as inactive: 7.07%. For O=[N+]([O-])c1ccc2c(c1)nnn2O, the inhibition was inactive: -35.8%. With CCOP1(=S)c2c(C)nn(CCC#N)c2N=C(c2ccc(F)cc2)N1C (stereo not drawn) the inhibition was inactive: -13.1%. For Cc1cccc(OCC(=O)OC2CN3CCC2CC3)c1 (stereo not drawn), the inhibition was inactive: -44.6%. For Cc1ccc(NCCc2c([N+](=O)[O-])cc([N+](=O)[O-])cc2[N+](=O)[O-])cc1, the inhibition was inactive: -67.1%. In the case of COc1cc(C2NCCC3(OCCO3)C2(C)C)cc(OC)c1OC (stereo not drawn), the inhibition is reported as inactive: 6.47%. With CCOP(=O)(Nc1cccc2ccccc12)OCC the inhibition was inactive: -62.8%. In the case of O=C(OC1CN2CCC1CC2)C12CC3CC(CC(C3)C1)C2 (stereo not drawn), the inhibition is reported as inactive: -51.4%. In the case of Cc1c2c(nc3ccccc13)SC(C(Cl)Cl)C2 (stereo not drawn), the inhibition is reported as inactive: -2.79%. For Cc1ccc2nc3c(c(C)c2c1)CC(C(Cl)Cl)S3 (stereo not drawn), the inhibition was inactive: -8.72%. For ClCCSc1nnc(-c2cccnc2)o1, the inhibition was inactive: -0.48%. For CCN(CC)C(=S)SC(NC=O)C(Cl)(Cl)Cl (stereo not drawn), the inhibition was inactive: -35.4%. In the case of O=[N+]([O-])c1cc([N+](=O)[O-])c(-c2ccn[nH]2)s1, the inhibition is reported as active: 76.4%. In the case of Cc1cc(SC(NC(=O)c2ccccc2)C(Cl)(Cl)Cl)nc(C(C)C)n1 (stereo not drawn), the inhibition is reported as inactive: -33.5%. In the case of COP1(=S)c2c(C)nn(CCC#N)c2N=C(c2ccc(F)cc2)N1C (stereo not drawn), the inhibition is reported as inactive: -49.4%. With O=C(COc1ccccc1)OC1CN2CCC1CC2 (stereo not drawn) the inhibition was inactive: -17.1%. For CCC(C)N(CC(C)C)C(=S)SC(NC(C)=O)C(Cl)(Cl)Cl (stereo not drawn), the inhibition was inactive: -14.9%. For CC(=O)N1C2C3N(C(C)=O)C1C1N(C(C)=O)C(C(N1C(C)=O)N3C(C)=O)N2C(C)=O, the inhibition was inactive: 3.31%. In the case of O=[N+]([O-])c1cccc2n[nH]nc12, the inhibition is reported as inactive: -51.5%. With CCc1nc2c(n1)c1c(non1O)c1c2no[n+]1[O-] the inhibition was inactive: -3.68%. In the case of CN(C)C(=O)OCCc1n(C)cc[n+]1C, the inhibition is reported as inactive: -15.9%. In the case of CC1CCN(C(=O)Oc2c(Cl)cc(Cl)c3cccnc23)CC1, the inhibition is reported as inactive: -14.7%. In the case of Cc1cc(SC(NC(=O)c2ccc(F)cc2)C(Cl)(Cl)Cl)ncn1 (stereo not drawn), the inhibition is reported as inactive: -26.4%. In the case of CCOP(=O)(Nc1ccccc1)OCC, the inhibition is reported as inactive: -68.8%. With CCN(N=Nc1nonc1N)c1nonc1N the inhibition was inactive: -19.1%. In the case of CN1CCCC(OC(=O)C(c2ccccc2)c2ccccc2)C1 (stereo not drawn), the inhibition is reported as inactive: 2.24%. In the case of CC(C)CC(=O)NC(Sc1ccc(Cl)cc1)C(Cl)(Cl)Cl (stereo not drawn), the inhibition is reported as inactive: -53.5%. With Oc1ccccc1CNc1ccccn1 the inhibition was inactive: -11.9%. With O=C(NC(Sc1ccncn1)C(Cl)(Cl)Cl)c1ccccc1 (stereo not drawn) the inhibition was inactive: -43%. With Cc1c2non([O-])c-2c(C)[n+](=O)[n+]1[O-] the inhibition was inactive: -3.26%. For O=P1(Nc2nc3ccc(Cl)cc3s2)COc2ccccc2O1 (stereo not drawn), the inhibition was inactive: 7.56%. With CCOC(=O)NC(Sc1ccccc1)C(Cl)(Cl)Cl (stereo not drawn) the inhibition was inactive: 8.94%. For COC(=O)c1cc2c(s1)N=C(c1ccccc1)N(C)P2(=O)N1CCOCC1 (stereo not drawn), the inhibition was inactive: -11.2%. With CC(=O)NC(SC(=S)N(CC(C)C)CC(C)C)C(Cl)(Cl)Cl (stereo not drawn) the inhibition was inactive: -17%. For CCC(=O)N1C2C3N(C(=O)CC)C1C1N(C(=O)CC)C(C(N1C(=O)CC)N3C(=O)CC)N2C(=O)CC, the inhibition was inactive: -5.42%. For CC(=O)NC(SC(=S)N(C)C)C(Cl)(Cl)Cl (stereo not drawn), the inhibition was inactive: 27.8%. With C(Cc1nn[nH]n1)Cc1nn[nH]n1 the inhibition was inactive: -41.9%. In the case of O=C(OC1CN2CCC1CC2)c1cccc(Cl)c1 (stereo not drawn), the inhibition is reported as inactive: -22.3%. For O=P(Nc1nccs1)(c1ccccc1)c1ccccc1, the inhibition was inactive: -34.2%. For CC(C)C(=O)NC(Sc1ccccc1)C(Cl)(Cl)Cl (stereo not drawn), the inhibition was inactive: -0.93%. With c1nnnn1CCn1cnnn1 the inhibition was inactive: -55.3%.
